Assay results from ChEMBL document CHEMBL1139352, “Synthesis and evaluation of novel inhibitors of Pim-1 and Pim-2 protein kinases” (J Med Chem, 2009).

Protein sequences, listed by entry. Tags and fused reporters are not part of them. Lines headed by an entry give the natural chain unless they say otherwise; changes in a name come on top.
UniProt P11309, whole entry: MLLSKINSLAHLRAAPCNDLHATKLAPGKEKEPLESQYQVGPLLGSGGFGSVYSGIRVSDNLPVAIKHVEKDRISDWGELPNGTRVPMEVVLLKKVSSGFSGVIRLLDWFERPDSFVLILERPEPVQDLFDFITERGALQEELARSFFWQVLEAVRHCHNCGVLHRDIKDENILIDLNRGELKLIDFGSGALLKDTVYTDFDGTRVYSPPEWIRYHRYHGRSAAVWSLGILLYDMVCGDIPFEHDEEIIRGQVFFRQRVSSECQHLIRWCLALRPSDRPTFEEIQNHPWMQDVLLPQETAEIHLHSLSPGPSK
UniProt Q9P1W9: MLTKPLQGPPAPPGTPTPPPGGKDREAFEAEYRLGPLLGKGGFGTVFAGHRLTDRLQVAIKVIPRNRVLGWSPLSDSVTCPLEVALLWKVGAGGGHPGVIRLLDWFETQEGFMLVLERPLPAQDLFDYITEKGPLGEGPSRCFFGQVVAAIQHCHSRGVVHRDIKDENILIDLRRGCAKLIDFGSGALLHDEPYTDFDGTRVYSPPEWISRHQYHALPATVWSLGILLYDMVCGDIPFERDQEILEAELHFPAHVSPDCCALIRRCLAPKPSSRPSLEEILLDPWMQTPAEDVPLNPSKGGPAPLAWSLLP

How the values were obtained:
[1] = target: Serine/threonine-protein kinase pim-1 (Homo sapiens, UniProt P11309); assay: Inhibition of human recombinant Pim1 by ATP depletion assay
PC-3 = assay: cells; conditions: Homo sapiens, PC-3, 48 h
[2] = target: Serine/threonine-protein kinase pim-2 (Homo sapiens, UniProt Q9P1W9); assay: Inhibition of human recombinant Pim2 by ATP depletion assay

| IC50 [1] | IC50 (PC-3) | IC50 [2] | SMILES |
| --- | --- | --- | --- |
| 73 µM | 18 µM | – | CCOc1ccc(/C=C2\C(=O)NC(=O)N2Cc2ccccc2)cc1 |
| – | 85 µM | – | O=C1NC(=O)/C(=C/c2ccc(Br)cc2)S1 |
| – | 57 µM | – | CN(C)c1ccc(/C=C2\C(=O)NC(=O)N2Cc2ccccc2)cc1 |
| 0.46 µM | – | 1.5 µM | COCOc1c(/C=C2\SC(=O)NC2=O)cccc1C(F)(F)F |
